Assays:
Assay in all cases: biochemical
Conditions in all cases: read-out: % remaining activity
DMPK2 = biological target: T1, DMPK2 (Homo sapiens, UniProt Q6DT37)
T1 construct: gene CDC42BPG

Amino acid sequences for entries named in this document (tags omitted). A change or cut given only in a name is not applied to a line headed by its entry.
UniProt Q04912, whole entry: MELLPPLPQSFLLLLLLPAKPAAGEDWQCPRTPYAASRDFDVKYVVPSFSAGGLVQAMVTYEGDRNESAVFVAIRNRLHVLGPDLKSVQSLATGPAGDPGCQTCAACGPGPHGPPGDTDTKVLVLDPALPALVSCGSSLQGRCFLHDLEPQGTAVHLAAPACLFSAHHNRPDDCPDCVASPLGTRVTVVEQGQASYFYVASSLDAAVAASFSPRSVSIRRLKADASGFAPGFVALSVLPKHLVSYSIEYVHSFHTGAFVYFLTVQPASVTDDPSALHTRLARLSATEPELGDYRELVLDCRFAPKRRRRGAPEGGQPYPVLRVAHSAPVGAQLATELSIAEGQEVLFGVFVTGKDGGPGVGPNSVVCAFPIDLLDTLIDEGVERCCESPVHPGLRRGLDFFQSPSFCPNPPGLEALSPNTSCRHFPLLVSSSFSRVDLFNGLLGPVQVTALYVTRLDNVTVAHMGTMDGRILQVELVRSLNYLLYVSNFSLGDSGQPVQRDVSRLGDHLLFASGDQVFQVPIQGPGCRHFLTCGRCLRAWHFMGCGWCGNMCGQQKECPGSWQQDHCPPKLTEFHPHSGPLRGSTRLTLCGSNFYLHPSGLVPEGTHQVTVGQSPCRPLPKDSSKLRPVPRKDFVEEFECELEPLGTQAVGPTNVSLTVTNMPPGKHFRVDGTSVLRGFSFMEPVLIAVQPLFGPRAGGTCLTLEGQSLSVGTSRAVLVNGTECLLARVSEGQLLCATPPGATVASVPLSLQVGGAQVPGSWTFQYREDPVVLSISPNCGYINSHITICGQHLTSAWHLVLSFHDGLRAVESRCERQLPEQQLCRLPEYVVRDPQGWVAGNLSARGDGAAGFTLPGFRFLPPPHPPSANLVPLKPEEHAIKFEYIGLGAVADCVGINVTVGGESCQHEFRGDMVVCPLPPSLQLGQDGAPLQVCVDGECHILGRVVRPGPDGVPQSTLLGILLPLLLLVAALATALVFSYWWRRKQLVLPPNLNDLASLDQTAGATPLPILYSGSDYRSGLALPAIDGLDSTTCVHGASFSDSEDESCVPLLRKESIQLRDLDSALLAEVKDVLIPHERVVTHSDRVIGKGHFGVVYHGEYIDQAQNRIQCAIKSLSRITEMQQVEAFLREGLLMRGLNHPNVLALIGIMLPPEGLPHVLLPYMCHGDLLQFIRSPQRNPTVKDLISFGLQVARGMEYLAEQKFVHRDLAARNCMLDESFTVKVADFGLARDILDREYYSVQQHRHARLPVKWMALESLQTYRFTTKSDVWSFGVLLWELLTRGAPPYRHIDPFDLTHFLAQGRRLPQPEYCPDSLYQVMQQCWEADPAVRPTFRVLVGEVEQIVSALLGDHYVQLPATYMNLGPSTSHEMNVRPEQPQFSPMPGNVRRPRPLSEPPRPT
UniProt O75582, whole entry: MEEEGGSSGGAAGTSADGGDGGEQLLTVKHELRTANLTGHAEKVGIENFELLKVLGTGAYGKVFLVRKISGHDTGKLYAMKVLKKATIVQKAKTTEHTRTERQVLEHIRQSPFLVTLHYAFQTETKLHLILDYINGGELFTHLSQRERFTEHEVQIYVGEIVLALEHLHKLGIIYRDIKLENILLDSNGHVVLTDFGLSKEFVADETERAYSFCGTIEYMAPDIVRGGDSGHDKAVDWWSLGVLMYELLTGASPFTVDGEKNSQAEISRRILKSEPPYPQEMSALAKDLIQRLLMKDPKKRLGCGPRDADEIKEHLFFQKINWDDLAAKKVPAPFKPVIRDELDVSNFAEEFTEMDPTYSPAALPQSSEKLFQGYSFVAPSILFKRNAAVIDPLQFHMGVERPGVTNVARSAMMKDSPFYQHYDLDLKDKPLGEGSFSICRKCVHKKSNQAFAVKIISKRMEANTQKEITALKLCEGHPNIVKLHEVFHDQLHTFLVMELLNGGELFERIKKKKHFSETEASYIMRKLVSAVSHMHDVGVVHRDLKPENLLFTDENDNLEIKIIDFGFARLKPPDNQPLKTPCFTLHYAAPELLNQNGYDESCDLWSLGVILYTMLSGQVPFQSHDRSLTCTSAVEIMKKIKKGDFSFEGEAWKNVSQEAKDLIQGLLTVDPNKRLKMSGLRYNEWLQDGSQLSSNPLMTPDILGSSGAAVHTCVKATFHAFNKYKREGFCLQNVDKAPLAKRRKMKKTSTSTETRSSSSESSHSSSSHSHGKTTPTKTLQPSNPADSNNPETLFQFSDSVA
UniProt P53350, whole entry: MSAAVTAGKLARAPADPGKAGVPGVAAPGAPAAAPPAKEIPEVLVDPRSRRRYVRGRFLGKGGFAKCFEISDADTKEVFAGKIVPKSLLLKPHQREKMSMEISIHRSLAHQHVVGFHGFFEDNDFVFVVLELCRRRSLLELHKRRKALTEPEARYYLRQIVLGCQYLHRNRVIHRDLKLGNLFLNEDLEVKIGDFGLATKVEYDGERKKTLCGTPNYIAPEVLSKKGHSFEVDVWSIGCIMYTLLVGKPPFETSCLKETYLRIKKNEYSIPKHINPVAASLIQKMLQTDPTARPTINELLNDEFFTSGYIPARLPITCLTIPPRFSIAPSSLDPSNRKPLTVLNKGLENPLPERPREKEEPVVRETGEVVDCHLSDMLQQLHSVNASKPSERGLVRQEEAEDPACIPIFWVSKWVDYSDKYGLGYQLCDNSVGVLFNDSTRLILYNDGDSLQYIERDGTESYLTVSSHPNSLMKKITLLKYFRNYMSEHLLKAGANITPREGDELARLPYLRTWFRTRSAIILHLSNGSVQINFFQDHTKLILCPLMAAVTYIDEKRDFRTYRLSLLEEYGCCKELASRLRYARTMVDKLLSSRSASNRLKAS
UniProt O94804: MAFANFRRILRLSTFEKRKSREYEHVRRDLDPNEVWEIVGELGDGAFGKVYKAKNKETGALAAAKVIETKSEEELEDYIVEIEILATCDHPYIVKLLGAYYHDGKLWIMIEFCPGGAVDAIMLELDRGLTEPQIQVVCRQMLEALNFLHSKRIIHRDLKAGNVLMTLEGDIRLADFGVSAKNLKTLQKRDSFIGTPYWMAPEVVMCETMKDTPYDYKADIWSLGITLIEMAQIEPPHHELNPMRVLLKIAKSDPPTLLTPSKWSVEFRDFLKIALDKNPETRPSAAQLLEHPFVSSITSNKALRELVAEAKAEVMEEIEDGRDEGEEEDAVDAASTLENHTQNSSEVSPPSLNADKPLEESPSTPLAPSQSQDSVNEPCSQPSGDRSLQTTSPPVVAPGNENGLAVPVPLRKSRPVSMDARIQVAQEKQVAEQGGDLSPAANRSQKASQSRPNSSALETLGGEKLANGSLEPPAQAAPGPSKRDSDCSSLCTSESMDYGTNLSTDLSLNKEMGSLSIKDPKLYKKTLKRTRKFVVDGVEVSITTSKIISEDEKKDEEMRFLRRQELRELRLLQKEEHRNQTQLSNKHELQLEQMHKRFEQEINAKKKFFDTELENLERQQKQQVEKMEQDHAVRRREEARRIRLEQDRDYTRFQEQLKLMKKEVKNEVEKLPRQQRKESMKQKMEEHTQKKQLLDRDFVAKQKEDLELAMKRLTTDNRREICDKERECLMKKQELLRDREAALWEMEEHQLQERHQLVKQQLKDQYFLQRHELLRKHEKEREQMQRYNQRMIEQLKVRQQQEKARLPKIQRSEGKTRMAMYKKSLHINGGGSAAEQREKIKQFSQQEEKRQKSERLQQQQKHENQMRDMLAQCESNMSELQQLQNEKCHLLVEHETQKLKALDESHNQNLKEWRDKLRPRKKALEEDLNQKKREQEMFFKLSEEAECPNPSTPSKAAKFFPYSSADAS
UniProt P53355: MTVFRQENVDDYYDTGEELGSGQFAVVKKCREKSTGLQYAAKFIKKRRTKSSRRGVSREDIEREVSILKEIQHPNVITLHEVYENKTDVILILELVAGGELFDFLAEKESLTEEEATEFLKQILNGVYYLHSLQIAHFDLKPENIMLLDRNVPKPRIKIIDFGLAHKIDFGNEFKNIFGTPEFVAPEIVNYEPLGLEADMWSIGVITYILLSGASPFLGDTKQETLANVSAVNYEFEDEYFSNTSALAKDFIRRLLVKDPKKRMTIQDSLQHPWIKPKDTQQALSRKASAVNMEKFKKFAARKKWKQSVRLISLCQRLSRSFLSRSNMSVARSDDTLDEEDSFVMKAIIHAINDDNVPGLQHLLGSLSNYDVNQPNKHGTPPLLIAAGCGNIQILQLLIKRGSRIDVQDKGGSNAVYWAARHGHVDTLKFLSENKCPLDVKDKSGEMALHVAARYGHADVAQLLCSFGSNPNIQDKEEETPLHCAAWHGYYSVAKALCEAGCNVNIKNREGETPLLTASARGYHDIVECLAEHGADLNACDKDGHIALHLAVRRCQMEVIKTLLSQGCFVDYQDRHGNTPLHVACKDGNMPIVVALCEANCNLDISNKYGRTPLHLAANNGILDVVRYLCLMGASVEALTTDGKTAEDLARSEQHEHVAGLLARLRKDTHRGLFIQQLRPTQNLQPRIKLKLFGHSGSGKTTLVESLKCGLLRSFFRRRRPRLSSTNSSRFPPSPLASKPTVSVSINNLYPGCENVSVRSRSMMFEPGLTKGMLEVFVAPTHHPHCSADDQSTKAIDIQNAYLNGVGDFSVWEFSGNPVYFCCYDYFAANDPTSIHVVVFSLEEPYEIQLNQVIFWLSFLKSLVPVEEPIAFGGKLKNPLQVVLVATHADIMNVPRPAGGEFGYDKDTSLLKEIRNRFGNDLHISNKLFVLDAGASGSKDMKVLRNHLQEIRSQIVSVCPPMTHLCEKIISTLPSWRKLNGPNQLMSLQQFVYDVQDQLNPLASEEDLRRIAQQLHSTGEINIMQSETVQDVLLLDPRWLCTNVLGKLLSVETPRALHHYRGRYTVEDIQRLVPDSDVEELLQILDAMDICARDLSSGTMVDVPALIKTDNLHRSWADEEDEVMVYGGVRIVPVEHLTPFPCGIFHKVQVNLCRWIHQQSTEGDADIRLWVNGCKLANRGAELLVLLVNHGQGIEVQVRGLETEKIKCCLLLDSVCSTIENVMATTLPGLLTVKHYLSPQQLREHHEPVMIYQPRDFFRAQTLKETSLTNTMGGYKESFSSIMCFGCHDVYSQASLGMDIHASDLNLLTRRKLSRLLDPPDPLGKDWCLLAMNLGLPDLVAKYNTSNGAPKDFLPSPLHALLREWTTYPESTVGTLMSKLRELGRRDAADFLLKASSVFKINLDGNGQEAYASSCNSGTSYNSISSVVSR
UniProt Q9P1W9: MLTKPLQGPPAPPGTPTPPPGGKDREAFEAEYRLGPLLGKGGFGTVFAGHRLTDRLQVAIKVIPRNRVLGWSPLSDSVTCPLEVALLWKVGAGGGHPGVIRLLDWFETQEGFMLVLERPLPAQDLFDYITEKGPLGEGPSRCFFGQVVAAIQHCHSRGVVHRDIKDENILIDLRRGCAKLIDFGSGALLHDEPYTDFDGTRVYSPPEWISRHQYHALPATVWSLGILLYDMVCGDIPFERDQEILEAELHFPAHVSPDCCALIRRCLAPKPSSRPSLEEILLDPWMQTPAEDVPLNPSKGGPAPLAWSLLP
UniProt P29320: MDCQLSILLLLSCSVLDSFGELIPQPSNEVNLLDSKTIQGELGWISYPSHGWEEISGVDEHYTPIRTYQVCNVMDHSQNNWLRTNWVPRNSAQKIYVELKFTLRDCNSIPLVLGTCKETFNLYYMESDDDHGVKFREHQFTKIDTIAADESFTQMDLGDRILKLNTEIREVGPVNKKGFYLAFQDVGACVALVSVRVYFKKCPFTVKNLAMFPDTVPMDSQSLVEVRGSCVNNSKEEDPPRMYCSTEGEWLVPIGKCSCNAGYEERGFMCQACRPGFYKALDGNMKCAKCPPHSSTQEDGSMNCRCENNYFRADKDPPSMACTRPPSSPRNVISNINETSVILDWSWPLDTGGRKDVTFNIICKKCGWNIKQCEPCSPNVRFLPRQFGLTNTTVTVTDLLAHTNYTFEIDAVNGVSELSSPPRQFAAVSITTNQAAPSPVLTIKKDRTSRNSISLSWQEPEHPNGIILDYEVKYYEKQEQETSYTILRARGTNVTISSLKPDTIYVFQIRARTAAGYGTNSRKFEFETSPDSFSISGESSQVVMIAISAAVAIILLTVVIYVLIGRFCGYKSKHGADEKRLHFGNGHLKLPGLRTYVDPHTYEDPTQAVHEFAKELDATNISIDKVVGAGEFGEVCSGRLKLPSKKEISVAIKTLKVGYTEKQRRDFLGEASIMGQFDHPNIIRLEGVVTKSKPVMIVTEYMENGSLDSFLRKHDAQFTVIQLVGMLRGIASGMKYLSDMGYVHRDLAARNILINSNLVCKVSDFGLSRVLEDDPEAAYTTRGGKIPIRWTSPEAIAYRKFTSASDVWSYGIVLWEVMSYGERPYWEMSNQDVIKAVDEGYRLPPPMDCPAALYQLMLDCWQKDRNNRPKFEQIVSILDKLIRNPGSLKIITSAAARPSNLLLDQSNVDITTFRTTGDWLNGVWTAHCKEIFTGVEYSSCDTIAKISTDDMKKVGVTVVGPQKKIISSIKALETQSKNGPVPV

MARK3 = MARK3 (Homo sapiens, UniProt P27448)
RON = biological target: T2, RON (Homo sapiens, UniProt Q04912)
T2 construct: gene MST1R

GRK7 = GRK7 (Homo sapiens, UniProt Q8WTQ7)
RSK3 = biological target: T3, RSK3 (Homo sapiens, UniProt Q15349)
T3 construct: gene RPS6KA2

SRC = SRC (Homo sapiens, UniProt P12931)
RPS6KA5 = RPS6KA5 (Homo sapiens, UniProt O75582)
PHKg2 = PHKg2 (Homo sapiens, UniProt P15735)
PKN2 = PKN2 (Homo sapiens, UniProt Q16513)
STK32B = STK32B (Homo sapiens, UniProt Q9NY57)
PLK1 = PLK1 (Homo sapiens, UniProt P53350)
LKB1 = biological target: T4, LKB1 (Homo sapiens, UniProt Q15831)
T4 construct: gene STK11

SNARK = biological target: T5, SNARK (Homo sapiens, UniProt Q9H093)
T5 construct: gene NUAK2

LOK = biological target: T6, LOK (Homo sapiens, UniProt O94804)
T6 construct: gene STK10

LCK = LCK (Homo sapiens, UniProt P06239)
TYRO3 = TYRO3 (Homo sapiens, UniProt Q06418)
DAPK1 = DAPK1 (Homo sapiens, UniProt P53355)
NEK9 = NEK9 (Homo sapiens, UniProt Q8TD19)
GRK4 = GRK4 (Homo sapiens, UniProt P32298)
DYRK3 = DYRK3 (Homo sapiens, UniProt O43781)
PIM2 = PIM2 (Homo sapiens, UniProt Q9P1W9)
MAP3K8 = MAP3K8 (Homo sapiens, UniProt P41279)
NEK5 = NEK5 (Homo sapiens, UniProt Q6P3R8)
IRAK1 = IRAK1 (Homo sapiens, UniProt P51617)
EPHA3 = EPHA3 (Homo sapiens, UniProt P29320)
JNK3 = biological target: T7, JNK3 (Homo sapiens, UniProt P53779)
T7 construct: gene MAPK10

SRMS = SRMS (Homo sapiens, UniProt Q9H3Y6)
PRKX = PRKX (Homo sapiens, UniProt P51817)
CAMK4 = CAMK4 (Homo sapiens, UniProt Q16566)
MYLK2 = MYLK2 (Homo sapiens, UniProt Q9H1R3)
MAP2K6 = MAP2K6 (Homo sapiens, UniProt P52564)
CDK2/cyclin E = CDK2/cyclin E (Homo sapiens, UniProt P24941)
LRRK2 = LRRK2 (Homo sapiens, UniProt Q5S007)
TLK1 = TLK1 (Homo sapiens, UniProt Q9UKI8)
MAP3K12 = MAP3K12 (Homo sapiens, UniProt Q12852)
EGFR = EGFR (Homo sapiens, UniProt P00533)

SMILES: COc1cc(-c2nn(CCN3CCC(N(C)C)CC3)c3ncnc(N)c23)ccc1NC(=O)OC(C)(C)C [eCF506]
- remaining activity at 1 µM (DMPK2): 91.5%
- remaining activity at 1 µM (MARK3): 101%
- remaining activity at 1 µM (RON): 90.9%
- remaining activity at 1 µM (GRK7): 98.6%
- remaining activity at 1 µM (RSK3): 103%
- remaining activity at 1 µM (SRC): 0.1%
- remaining activity at 1 µM (RPS6KA5): 91.1%
- remaining activity at 1 µM (PHKg2): 95.3%
- remaining activity at 1 µM (PKN2): 111%
- remaining activity at 1 µM (STK32B): 119%
- remaining activity at 1 µM (PLK1): 109%
- remaining activity at 1 µM (LKB1): 100%
- remaining activity at 1 µM (SNARK): 105%
- remaining activity at 1 µM (LOK): 104%
- remaining activity at 1 µM (LCK): 1.4%
- remaining activity at 1 µM (TYRO3): 110%
- remaining activity at 1 µM (DAPK1): 105%
- remaining activity at 1 µM (NEK9): 97.1%
- remaining activity at 1 µM (GRK4): 99.5%
- remaining activity at 1 µM (DYRK3): 93%
- remaining activity at 1 µM (PIM2): 101%
- remaining activity at 1 µM (MAP3K8): 74.6%
- remaining activity at 1 µM (NEK5): 108%
- remaining activity at 1 µM (IRAK1): 91.8%
- remaining activity at 1 µM (EPHA3): 105%
- remaining activity at 1 µM (JNK3): 95.1%
- remaining activity at 1 µM (SRMS): 46.2%
- remaining activity at 1 µM (PRKX): 98.6%
- remaining activity at 1 µM (CAMK4): 92.7%
- remaining activity at 1 µM (MYLK2): 106%
- remaining activity at 1 µM (MAP2K6): 106%
- remaining activity at 1 µM (CDK2/cyclin E): 102%
- remaining activity at 1 µM (LRRK2): 96.6%
- remaining activity at 1 µM (TLK1): 97.3%
- remaining activity at 1 µM (MAP3K12): 108%
- remaining activity at 1 µM (EGFR): 117%

Reference: article PMC7611940, “A Conformation Selective Mode of Inhibiting SRC Improves Drug Efficacy and Tolerability” (Cancer Research, 2021)
